Measurements taken from US20140194321A1 (CELLOMICS, INC., priority 2013, published 2014).

Tested on: U937 cells
Assay: High-content imaging skin sensitizing prediction assay: U937 cells treated 24 h with a range of compound concentrations, CD54 intensity per cell and cell number dose response curves qualified, decision matrix applied
Conditions: skin sensitivity prediction from decision matrix of FIG. 8 (CD54/cell vs cell number); Toxic* = at concentrations tested

Butanol
Outcome: Non-sensitizer
